Test results published in patent US10208066B2, “Imidazopyridazine compounds and their use” (HUTCHISON MEDIPHARMA LIMITED, priority 2014, dated 2019).

Sequences of proteins named here, by UniProt entry; tags and fusion partners are left off. A change or cut given only in a name is not applied to a line headed by its entry.
UniProt O00329, whole entry, species assumed: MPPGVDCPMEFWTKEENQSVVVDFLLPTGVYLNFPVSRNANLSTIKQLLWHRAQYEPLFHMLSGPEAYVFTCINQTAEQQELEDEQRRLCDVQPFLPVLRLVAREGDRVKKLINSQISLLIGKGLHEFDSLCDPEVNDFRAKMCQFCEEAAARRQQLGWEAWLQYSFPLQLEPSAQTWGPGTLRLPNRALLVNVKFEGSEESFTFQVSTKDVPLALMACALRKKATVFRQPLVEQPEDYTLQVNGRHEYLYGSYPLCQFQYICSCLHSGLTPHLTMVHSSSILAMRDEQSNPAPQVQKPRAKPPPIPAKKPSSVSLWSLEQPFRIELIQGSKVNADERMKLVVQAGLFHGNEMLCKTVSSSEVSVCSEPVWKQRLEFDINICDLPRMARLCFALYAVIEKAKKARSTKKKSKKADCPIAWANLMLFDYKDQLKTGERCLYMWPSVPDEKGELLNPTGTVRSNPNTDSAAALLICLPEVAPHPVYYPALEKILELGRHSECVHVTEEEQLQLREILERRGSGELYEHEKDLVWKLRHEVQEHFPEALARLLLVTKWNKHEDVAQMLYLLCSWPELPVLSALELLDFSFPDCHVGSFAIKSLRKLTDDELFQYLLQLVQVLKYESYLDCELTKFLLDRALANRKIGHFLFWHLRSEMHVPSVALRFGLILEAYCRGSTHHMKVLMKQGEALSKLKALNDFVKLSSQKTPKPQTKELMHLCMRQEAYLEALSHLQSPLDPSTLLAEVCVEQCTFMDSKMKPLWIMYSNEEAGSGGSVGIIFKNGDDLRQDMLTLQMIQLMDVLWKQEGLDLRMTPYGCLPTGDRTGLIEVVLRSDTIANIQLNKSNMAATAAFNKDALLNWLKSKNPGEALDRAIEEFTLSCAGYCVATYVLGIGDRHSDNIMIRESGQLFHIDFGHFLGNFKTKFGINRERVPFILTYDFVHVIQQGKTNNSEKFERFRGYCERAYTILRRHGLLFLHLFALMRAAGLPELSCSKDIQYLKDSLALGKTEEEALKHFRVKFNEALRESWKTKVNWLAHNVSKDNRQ
UniProt P48736, whole entry, species assumed: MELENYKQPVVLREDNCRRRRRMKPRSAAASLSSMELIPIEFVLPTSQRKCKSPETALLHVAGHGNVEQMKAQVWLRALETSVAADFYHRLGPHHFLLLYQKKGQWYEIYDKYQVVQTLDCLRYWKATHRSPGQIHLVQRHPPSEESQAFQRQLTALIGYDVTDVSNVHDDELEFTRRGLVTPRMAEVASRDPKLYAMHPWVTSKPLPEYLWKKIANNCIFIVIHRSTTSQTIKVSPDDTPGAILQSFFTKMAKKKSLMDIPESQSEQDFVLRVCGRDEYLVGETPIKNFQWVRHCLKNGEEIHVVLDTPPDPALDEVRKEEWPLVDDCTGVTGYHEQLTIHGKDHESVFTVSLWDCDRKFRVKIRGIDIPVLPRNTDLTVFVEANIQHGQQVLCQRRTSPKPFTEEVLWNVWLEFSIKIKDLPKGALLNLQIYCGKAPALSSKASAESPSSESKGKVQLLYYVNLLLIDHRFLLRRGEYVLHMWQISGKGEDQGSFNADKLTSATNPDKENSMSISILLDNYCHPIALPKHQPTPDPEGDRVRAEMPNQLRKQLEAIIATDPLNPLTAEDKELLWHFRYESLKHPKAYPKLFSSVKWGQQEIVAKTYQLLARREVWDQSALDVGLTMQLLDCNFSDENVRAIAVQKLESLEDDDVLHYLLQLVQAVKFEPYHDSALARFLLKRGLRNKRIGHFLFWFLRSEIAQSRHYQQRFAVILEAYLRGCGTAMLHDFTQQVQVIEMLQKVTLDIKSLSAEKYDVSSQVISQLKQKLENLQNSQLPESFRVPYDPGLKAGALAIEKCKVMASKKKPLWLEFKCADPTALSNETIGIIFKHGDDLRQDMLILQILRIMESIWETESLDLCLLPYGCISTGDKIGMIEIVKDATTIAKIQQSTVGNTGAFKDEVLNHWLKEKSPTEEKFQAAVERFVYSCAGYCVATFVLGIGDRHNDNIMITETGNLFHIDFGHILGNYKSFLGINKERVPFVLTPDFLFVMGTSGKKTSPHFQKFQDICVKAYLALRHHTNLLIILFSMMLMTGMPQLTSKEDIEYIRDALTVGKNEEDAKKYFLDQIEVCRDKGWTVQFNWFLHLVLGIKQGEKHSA
UniProt P42338: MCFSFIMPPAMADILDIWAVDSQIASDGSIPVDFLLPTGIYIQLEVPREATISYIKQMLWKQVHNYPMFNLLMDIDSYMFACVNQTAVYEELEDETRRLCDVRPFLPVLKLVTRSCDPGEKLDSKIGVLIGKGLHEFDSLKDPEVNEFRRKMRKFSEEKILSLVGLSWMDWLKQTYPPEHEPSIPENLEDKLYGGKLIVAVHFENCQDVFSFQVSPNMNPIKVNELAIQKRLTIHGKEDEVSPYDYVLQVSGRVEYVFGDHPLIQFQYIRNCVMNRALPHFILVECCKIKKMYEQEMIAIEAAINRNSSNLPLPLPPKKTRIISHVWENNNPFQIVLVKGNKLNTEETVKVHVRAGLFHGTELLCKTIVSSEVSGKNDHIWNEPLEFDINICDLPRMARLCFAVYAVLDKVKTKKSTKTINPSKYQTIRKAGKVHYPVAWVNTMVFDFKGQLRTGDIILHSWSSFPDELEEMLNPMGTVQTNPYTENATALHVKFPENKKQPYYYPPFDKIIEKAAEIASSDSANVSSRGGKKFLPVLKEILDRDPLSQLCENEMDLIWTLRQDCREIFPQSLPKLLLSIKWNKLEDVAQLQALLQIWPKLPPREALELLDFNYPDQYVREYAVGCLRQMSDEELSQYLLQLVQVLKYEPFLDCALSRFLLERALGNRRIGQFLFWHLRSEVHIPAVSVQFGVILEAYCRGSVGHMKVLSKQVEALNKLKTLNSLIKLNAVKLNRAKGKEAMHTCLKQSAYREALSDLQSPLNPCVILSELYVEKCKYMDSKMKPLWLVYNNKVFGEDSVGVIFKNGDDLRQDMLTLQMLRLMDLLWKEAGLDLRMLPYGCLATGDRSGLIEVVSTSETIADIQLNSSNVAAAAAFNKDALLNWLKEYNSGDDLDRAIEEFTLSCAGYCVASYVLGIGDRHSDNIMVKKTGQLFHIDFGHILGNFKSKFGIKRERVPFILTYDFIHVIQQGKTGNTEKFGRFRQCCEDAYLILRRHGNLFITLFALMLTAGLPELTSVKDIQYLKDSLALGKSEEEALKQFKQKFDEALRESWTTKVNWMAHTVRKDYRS

How the values were obtained:
Experiment in all cases: Transcreener KINASE Assay, fluorescent determination of PI3K enzyme activity
Format in all cases: biochemical
PI3K-δ (p110δ/p85α) = PI3K-δ (p110δ/p85α) (Homo sapiens (Human), UniProt O00329);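 note: ADP formed by the kinase detected via far-red competitive fluorescence polarization immunoassay after 80 min room-temperature reaction, inhibition relative to 2% DMSO wells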
PI3K-γ (p110γ) = PI3K-γ (p110γ) (Homo sapiens (Human), UniProt P48736);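 note: ADP produced by p110γ kinase reaction, 80 min at room temperature, detected by far-red fluorescence polarization immunoassay, inhibition relative to 2% DMSO control wells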
PI3K-β = PI3K-β (Homo sapiens, UniProt P42338);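 note: recombinant PI3K enzyme reaction, 80 min at room temperature, ADP formed detected by far-red competitive fluorescence polarization immunoassay, inhibition relative to ADP in 2% DMSO control wells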

| Structure (SMILES) | IC50 (PI3K-δ (p110δ/p85α)) [nM] | IC50 (PI3K-γ (p110γ)) [nM] | IC50 (PI3K-β) [nM] |
| --- | --- | --- | --- |
| C[C@@H](Nc1ncnc(N)c1C#N)c1cc2ncc(Cl)n2nc1-c1ccccc1 [Compound 3, (R)-4-amino-6-((1-(3-chloro-6-phenylimidazo[1,2-b]pyridazin-7-yl)ethyl)amino)pyrimidine-5-carbonitrile] | 48 | – | – |
| CC(Nc1ncnc(N)c1C#N)c1cc2ncc(Cl)n2nc1-c1ccccc1 (racemic) [Compound 2, 4-amino-6-((1-(3-chloro-6-phenylimidazo[1,2-b]pyridazin-7-yl)ethyl)amino)pyrimidine-5-carbonitrile] | – | 168 | – |
| Cc1nnc(-c2c(N)ncnc2N[C@@H](C)c2cc3ncc(Cl)n3nc2-c2ccccc2)o1 [Compound 81, (S)—N^4-(1-(3-chloro-6-phenylimidazo[1,2-b]pyridazin-7-yl)ethyl)-5-(5-methyl-1,3,4-oxadiazol-2-yl)pyrimidine-4,6-diamine] | – | – | 630 |
| C[C@H](Nc1ncnc(N)c1C#N)c1cc2ncc(Cl)n2nc1-c1ccccc1 [Compound 4, (S)-4-amino-6-((1-(3-chloro-6-phenylimidazo[1,2-b]pyridazin-7-yl)ethyl)amino)pyrimidine-5-carbonitrile] | 0.3 | 38 | – |
